## Ab-14 heavy chain CDR variants: yeast mating affinities

From the AlphaSeq antibody data of Engelhart et al. 2022 (doi:10.1038/s41597-022-01779-4), copy in the FLAb collection.

All variants were tested on one target, the spike HR2 peptide PDVDLGDISGINAS (SARS-CoV-2).

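Phage display of a naive human antibody library on the peptide gave the parent. Library AAYL49 holds single substitutions and randomly drawn double and triple substitutions in the CDRs. In AlphaSeq, yeast of one mating type display the scFv and yeast of the other type display the target. Pairs that bind mate more often; barcode pairs of the diploids are counted by sequencing. Each replicate has its own calibration line, from reference interactions of the BCL2 family. Each pool was mated in three replicate cultures.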

Ab-14 is the parent antibody, in scFv form: VH, then a (GGGGS)3 linker, then VL. The light chain is unchanged in all variants.
VH: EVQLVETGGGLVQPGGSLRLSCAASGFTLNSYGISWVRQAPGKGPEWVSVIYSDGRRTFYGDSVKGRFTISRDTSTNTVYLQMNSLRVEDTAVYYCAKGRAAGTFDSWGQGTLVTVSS
VL: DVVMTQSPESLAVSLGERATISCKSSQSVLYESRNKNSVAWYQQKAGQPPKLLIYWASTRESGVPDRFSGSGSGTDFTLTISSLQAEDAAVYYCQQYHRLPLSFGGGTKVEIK

Variants are written as CDR1, CDR2 and CDR3 of the heavy chain (limits as in the source). Parent: GFTLNSYGIS, VIYSDGRRTFYGDSVK, GRAAGTFDS.
Affinities are written as log10 Kd with Kd in nM; a lower number is a better binder.
A mean of the replicates is given; it leaves out those without a signal.
Where no diploid with the target was found in that replicate, the entry reads "ND": below detection, most likely a poor binder, though not proof of it.
In this assay the parent's reference entry averaged 0.65; its copy inside this library read 4.11 (one replicate of three).

| CDR-H1 | CDR-H2 | CDR-H3 | log10 Kd, replicates | mean, log10 nM | empty controls |
|---|---|---|---|---|---|
| HFTLPSYGIS | VIYSDGRRTFYGDSDK | GRAAGTFDS | 3.40 4.51 ND | 3.96 | 2 of 9 (3.43) |
| MFTLNSYGIS | VIYSDGRRTFYGDWVK | GRADGTFDS | ND 3.79 4.27 | 4.03 | 2 of 9 (3.81) |
| GFTLMSYGIS | VIYSDGRRTFYLDSVK | GRAAGTFDH | 3.72 2.58 1.49 | 2.60 | 0 of 9 |
| GMTNNSYGIS | VIYSDGRRTFYGDSVK | GRAAGTFFS | 5.94 4.17 ND | 5.06 | 1 of 9 (4.08) |
| GFWLNSYGIS | VIYSDGRRRFYGDSVK | GRAAPTFDS | 3.96 3.51 4.66 | 4.04 | 3 of 9 (3.87) |
| GFTMNSYGIS | VIYSDGRRTFYGDSVK | GREAGTFDS | -0.13 0.35 0.53 | 0.25 | 0 of 9 |
| GFTLNSYGIS | VIYSDGRRTFYGDSTK | GAAAGTRDS | 3.76 3.06 3.51 | 3.45 | 6 of 9 (4.02) |
| GFTLNSYGIS | IIYSDGRRTFYLDSVK | GRAAGTFDS | 1.79 1.69 1.82 | 1.77 | 5 of 9 (4.95) |
| GFTLNSYGIS | VIYSDGRRTFYGDSVK | GRAAKRFDV | 0.26 0.56 0.70 | 0.51 | 0 of 9 |
| GFTLNSYPIS | VIYSDGRRTFYRDSVQ | GRAAGTFDS | ND ND ND | ND | 0 of 9 |
| GFTLNSYGCS | VIYSDGRRTFYGDSVK | GRQAGTFDT | 2.41 2.21 2.25 | 2.29 | 1 of 9 (3.38) |
| GFTLNSYGIS | VIYSEGRRTFYGDSVK | GRASGDFDS | ND 3.37 ND | 3.37 | 2 of 9 (4.30) |
| GFTLNSYGIS | VIYSDGIRTFYPDSVK | GRAAGTDDS | 2.51 1.70 2.71 | 2.31 | 0 of 9 |
| GTTLNSPGIS | VIYSMGRRTFYGDSVK | GRAAGTFDS | ND ND 2.20 | 2.20 | 0 of 9 |
| GFTLNSYGIS | VIYSDGRHTFYGDSFK | GRAAVTFDS | ND 2.06 3.93 | 2.99 | 0 of 9 |
| GFTLNSYGIS | VIYSDGRLTFYGDSHK | GRAAGIFDS | ND 3.56 ND | 3.56 | 2 of 9 (4.32) |
| GFTLNTVGIS | VIYSDGARTFYGDSVK | GRAAGTFDS | 1.36 1.87 ND | 1.62 | 0 of 9 |
| GFTLNSYGIS | VIYSDGRRTFYGDSKK | GRAAECFDS | 3.11 ND 2.99 | 3.05 | 0 of 9 |
| LFTLNSYGIS | VIYSDGRRTFYGDSVK | GRAACTFDC | 2.14 2.06 2.47 | 2.22 | 5 of 9 (4.77) |
| GFTLNSYGIS | VIYSFGRRTFYGDSVK | GIAAGTFDS | ND ND ND | ND | 0 of 9 |

Continued, with the values leading:

| log10 Kd, replicates | mean, log10 nM | empty controls | CDR-H1 | CDR-H2 | CDR-H3 |
|---|---|---|---|---|---|
| ND ND ND | ND | 0 of 9 | GFTLNSYGIS | EIYSDGRWTFYGDSVK | GRAAGTFDE |
| 3.77 5.08 ND | 4.43 | 7 of 9 (4.36) | GFTLNSYGIS | VIYSHGRRTFGGDSVK | GRAAGTTDS |
| ND 3.34 ND | 3.34 | 3 of 9 (4.55) | GFTLNSEGIS | VIYGDGRRTFYGDSVK | GRAAGQFDS |
| ND 3.73 ND | 3.73 | 4 of 9 (4.50) | GFTLNSYPIS | VIYSDGRRTSYGDSVK | GRAAGTFDS |
| ND ND ND | ND | 0 of 9 | GFTLNSYGIV | MIYSDGRRTFYGDSYK | GRAAGTFDS |
| ND ND ND | ND | 1 of 9 (3.25) | GFTLNSYGIS | KIYEDGRRTFYGDSVK | GRAAGTFES |
| ND ND ND | ND | 0 of 9 | GFTLNSYGIS | VCYSDGRRTFYGDSVK | GQAAGTFDE |
| 1.97 2.15 1.98 | 2.03 | 2 of 9 (4.36) | GFTLDSYGIS | VIYSDGRRTFYGDSVG | GRAAGTFDS |
| 0.67 0.87 0.78 | 0.77 | 1 of 9 (3.50) | GFTLNTYGIS | VIYSDGRRTFYGDQVK | GEAAGTFDS |
| 6.22 4.52 5.45 | 5.40 | 4 of 9 (4.17) | GFTLNEYGIS | VKYMDGRRTFYGDSVK | GRAAGTFDS |
| 3.72 ND ND | 3.72 | 0 of 9 | GFILNSYGIS | VIYSCGRRTFYGVSVK | GRAAGTFDS |
| 5.89 4.91 3.85 | 4.88 | 7 of 9 (4.47) | GFTLNSYGIS | VIYSRGRRTFYGPSVK | GRAAGGFDS |
| ND ND ND | ND | 1 of 9 (3.50) | GWTWNSYGIS | VIYSDGRRTFYGDSVK | GRAAGTMDS |
| 6.11 5.30 5.49 | 5.63 | 1 of 9 (4.26) | GFTLRSYGIS | VAYSDGRRTFYGDSDK | GRAAGTFDS |
| ND ND ND | ND | 3 of 9 (3.50) | GFTLNSYGIS | YIYSSGRRTFYGDSVK | GRCAGTFDS |
| 2.44 3.14 2.99 | 2.85 | 3 of 9 (4.47) | EFTLNSYGIS | VIYVDGRRTFYGGSVK | GRAAGTFDS |
| 4.36 3.87 ND | 4.11 | 2 of 9 (4.43) | GFTLNSYGIS | VIYSDQRRTFYGDSVS | GRAAGTFDH |
| ND 3.77 ND | 3.77 | 1 of 9 (2.66) | GCTCNSYMIS | VIYSDGRRTFYGDSVK | GRAAGTFDS |
| ND ND ND | ND | 0 of 9 | GFTLKSYGIQ | VIYSDGRRTFYGDYVK | GRAAGTFDS |
| ND 4.93 ND | 4.93 | 0 of 9 | GFTLASYGIS | VIYSDGRRTFYGDSVI | GRAAGLFDS |

Excerpt, the first 6 entries:

| CDR-H1 | CDR-H2 | CDR-H3 | log10 Kd, replicates | mean, log10 nM | empty controls |
|---|---|---|---|---|---|
| HFTLPSYGIS | VIYSDGRRTFYGDSDK | GRAAGTFDS | 3.40 4.51 ND | 3.96 | 2 of 9 (3.43) |
| MFTLNSYGIS | VIYSDGRRTFYGDWVK | GRADGTFDS | ND 3.79 4.27 | 4.03 | 2 of 9 (3.81) |
| GFTLMSYGIS | VIYSDGRRTFYLDSVK | GRAAGTFDH | 3.72 2.58 1.49 | 2.60 | 0 of 9 |
| GMTNNSYGIS | VIYSDGRRTFYGDSVK | GRAAGTFFS | 5.94 4.17 ND | 5.06 | 1 of 9 (4.08) |
| GFWLNSYGIS | VIYSDGRRRFYGDSVK | GRAAPTFDS | 3.96 3.51 4.66 | 4.04 | 3 of 9 (3.87) |
| GFTMNSYGIS | VIYSDGRRTFYGDSVK | GREAGTFDS | -0.13 0.35 0.53 | 0.25 | 0 of 9 |

As a blank, each scFv also met three strains without target: over library AAYL49, 15% of these pairings were detected, typically at 4.06 and seldom below 2.83. The control count says in how many pairings with the empty strains this scFv gave a signal, with their mean in brackets.